The test system of the data set is hepG 2 2.2.15 cell line. Briefly: Cytotoxicity (cell survival, TC50) in the HBV-DNA experiment. The settings on record: 2.2.15 cells, day 8; concentration at which cell survival is 50% of control. The method, then: Cell suspensions were prepared and incubated as described in Method 1 above. […] The culture media, with added test substance, were exchanged on days 3 and 6. On the 8th day, the supernatants of the cell cultures were harvested for the determination of HBV-DNA concentrations by fluorescent quantitative PCR^[3,4], using the method described by the kit supplier. The cultured cells were taken for analysis of the cytotoxicity of each test substance. The inhibitory percentage of the drug was calculated in the following manner: Inhibitory percentage (%)=(blank control−sample)/blank control×100 Cell survival percentage (%)=sample (A595−A650)/blank control (A595−A650)×100
TC50 was defined as the test substance concentration at which the percentage of surviving cells in the test group is 50% of that of the control group. IC50 was the test substance concentration at which the percentage of reduction of HBV-DNA concentration is 50% compared to control. These were determined by plotting the corresponding percentage against the test substance concentrations. The selection index (SI) was calculated as TC50/IC50. The bigger the value of SI, the higher the inhibition activity of test substance is and the less cytotoxic it is.

The substance “vidarabine monophosphate [Ara-AMP, reference compound]” showed a TC50 of 64.2 mg/L.

The values are drawn from US7396817B2, “Biologically active peptides comprising Isoleucyl-valyl-threonyl-asparaginyl-threonyl-threonine (IVTNTT)” (CMS Peptides Patent Holding Company Limited, priority 2003, dated 2008).
